Results on 1 compound are retold here after ChEMBL document CHEMBL1134200, “Pimarane cyclooxygenase 2 (COX-2) inhibitor and its structure-activity relationship” (Bioorg Med Chem Lett, 2001).

What is called IC50 is the concentration that inhibits the measured activity by half. A low value points to greater potency in that assay.

The test addresses T1, Prostaglandin G/H synthase 2 (Ovis aries, UniProt P79208).
T1 sequence (P79208 whole entry): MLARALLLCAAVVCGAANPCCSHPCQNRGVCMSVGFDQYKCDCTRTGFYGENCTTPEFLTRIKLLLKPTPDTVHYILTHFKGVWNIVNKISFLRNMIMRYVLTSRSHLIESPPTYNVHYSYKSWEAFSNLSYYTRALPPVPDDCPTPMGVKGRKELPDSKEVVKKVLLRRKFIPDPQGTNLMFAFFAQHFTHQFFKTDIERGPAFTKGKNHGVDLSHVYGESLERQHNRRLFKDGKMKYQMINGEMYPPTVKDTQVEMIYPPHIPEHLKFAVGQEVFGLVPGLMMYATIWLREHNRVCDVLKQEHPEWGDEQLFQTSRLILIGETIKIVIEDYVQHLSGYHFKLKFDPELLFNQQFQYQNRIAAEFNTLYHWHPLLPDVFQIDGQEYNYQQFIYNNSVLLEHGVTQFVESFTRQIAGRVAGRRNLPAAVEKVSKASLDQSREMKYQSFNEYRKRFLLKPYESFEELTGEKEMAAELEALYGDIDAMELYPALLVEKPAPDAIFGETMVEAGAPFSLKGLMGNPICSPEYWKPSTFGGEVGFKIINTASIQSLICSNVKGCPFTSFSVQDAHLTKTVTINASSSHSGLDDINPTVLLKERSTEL
Kind of test: Inhibitory activity against Prostaglandin G/H synthase 2 from sheep placental cotyledons.

Structures are written as SMILES.

`C=C[C@@]1(C)CC=C2C(CCC3[C@](C)(CCCCC(=O)O)CCC[C@@]23C)C1` (stereo partly specified) returned an IC50 of 38.7 µM.
